Drawing on patent US20100311714A1, “1H-IMIDAZO[4,5-c]QUINOLINONE COMPOUNDS” (priority 2009, published 2010), this text covers IC50 for one compound.

Chains of the proteins cited; added tags and fusions are not shown. A line that says so, or that is headed by a name, gives the form on record, which may keep a tag or linker. Residues count along the entry.
UniProt P42336, whole entry, looked up: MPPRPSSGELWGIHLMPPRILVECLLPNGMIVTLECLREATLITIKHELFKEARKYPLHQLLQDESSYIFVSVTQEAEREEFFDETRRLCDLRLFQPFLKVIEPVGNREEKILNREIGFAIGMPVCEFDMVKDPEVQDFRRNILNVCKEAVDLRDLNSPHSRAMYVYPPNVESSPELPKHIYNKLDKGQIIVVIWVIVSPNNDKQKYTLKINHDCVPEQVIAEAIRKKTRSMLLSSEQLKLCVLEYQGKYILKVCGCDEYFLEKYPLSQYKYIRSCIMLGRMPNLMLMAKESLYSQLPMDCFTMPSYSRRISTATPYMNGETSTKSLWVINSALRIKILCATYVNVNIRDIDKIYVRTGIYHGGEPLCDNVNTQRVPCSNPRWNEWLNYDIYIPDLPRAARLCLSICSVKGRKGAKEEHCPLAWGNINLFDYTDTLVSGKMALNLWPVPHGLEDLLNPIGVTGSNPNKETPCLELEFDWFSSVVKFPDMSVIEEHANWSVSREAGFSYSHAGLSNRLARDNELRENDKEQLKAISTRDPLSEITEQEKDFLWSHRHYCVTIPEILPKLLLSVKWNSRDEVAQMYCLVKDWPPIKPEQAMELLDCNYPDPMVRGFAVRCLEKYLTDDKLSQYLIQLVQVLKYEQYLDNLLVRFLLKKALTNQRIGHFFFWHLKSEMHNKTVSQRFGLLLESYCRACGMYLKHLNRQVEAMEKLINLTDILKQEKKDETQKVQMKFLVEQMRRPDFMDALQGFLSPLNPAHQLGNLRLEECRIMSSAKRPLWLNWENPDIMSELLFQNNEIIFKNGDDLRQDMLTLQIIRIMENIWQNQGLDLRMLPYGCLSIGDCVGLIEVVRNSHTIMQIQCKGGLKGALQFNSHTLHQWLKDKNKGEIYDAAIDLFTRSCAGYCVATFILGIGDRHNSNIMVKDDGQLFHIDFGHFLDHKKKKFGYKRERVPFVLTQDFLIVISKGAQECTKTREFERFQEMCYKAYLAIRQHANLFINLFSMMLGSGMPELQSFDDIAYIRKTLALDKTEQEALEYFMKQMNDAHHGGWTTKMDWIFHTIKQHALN
UniProt P42336, 21-1068 with tags or gaps limits assumed: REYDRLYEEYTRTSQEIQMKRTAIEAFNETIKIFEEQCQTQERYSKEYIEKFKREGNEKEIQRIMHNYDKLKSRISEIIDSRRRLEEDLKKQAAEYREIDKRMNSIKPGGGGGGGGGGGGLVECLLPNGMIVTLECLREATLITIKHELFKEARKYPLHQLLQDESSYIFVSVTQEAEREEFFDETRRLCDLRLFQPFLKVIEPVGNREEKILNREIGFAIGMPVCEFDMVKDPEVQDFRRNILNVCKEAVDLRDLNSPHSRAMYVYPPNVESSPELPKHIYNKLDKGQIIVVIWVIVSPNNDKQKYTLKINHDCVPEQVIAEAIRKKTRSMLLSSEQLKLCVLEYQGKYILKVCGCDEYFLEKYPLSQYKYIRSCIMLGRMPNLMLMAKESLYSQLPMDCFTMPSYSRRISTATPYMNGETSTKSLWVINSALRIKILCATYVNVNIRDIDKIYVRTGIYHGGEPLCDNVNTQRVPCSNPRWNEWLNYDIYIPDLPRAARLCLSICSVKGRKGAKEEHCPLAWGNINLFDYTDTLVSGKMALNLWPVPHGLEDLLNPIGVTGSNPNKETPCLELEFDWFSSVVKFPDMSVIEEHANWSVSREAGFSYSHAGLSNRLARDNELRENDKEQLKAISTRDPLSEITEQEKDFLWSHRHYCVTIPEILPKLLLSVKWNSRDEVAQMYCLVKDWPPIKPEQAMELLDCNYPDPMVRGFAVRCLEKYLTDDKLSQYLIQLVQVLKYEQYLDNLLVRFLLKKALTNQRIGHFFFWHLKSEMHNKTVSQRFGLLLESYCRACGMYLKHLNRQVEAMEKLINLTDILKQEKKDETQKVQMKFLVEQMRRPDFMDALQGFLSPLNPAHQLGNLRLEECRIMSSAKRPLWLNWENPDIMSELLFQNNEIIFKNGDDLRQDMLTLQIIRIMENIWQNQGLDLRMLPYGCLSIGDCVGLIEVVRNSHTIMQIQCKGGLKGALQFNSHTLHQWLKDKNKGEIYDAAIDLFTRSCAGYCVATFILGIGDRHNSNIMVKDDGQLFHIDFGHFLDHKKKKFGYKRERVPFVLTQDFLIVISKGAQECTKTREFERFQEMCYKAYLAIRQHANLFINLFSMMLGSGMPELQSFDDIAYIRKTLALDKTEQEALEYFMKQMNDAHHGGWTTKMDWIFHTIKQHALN
UniProt P42338, whole entry, looked up: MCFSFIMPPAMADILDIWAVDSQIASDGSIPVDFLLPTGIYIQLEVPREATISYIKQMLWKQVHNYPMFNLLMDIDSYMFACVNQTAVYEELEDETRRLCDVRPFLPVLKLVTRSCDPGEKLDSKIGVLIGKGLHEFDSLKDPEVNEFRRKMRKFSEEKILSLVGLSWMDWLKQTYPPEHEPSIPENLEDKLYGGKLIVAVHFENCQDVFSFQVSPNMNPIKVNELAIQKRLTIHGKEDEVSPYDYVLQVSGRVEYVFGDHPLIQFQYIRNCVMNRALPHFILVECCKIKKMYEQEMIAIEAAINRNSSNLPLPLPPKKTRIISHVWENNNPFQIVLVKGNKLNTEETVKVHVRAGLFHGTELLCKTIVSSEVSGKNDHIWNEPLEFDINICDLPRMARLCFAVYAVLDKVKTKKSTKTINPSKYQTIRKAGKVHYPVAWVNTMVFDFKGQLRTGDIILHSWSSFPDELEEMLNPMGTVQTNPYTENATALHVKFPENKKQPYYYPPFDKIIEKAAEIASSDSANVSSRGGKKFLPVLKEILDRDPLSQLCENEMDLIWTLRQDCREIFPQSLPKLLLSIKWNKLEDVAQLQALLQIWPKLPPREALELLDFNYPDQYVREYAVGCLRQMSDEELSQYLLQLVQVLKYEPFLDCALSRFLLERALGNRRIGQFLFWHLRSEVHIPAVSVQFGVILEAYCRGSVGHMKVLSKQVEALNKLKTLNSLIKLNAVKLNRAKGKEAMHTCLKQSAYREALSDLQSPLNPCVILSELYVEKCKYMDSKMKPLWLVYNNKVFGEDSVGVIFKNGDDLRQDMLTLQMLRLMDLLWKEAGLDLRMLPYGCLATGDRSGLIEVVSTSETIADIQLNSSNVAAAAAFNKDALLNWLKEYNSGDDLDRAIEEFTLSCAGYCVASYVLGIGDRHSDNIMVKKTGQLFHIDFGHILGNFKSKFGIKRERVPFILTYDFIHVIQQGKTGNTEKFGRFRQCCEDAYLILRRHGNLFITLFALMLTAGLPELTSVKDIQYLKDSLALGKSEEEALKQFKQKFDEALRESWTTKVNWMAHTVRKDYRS
UniProt P42338, 2-1070 with tags or gaps limits assumed: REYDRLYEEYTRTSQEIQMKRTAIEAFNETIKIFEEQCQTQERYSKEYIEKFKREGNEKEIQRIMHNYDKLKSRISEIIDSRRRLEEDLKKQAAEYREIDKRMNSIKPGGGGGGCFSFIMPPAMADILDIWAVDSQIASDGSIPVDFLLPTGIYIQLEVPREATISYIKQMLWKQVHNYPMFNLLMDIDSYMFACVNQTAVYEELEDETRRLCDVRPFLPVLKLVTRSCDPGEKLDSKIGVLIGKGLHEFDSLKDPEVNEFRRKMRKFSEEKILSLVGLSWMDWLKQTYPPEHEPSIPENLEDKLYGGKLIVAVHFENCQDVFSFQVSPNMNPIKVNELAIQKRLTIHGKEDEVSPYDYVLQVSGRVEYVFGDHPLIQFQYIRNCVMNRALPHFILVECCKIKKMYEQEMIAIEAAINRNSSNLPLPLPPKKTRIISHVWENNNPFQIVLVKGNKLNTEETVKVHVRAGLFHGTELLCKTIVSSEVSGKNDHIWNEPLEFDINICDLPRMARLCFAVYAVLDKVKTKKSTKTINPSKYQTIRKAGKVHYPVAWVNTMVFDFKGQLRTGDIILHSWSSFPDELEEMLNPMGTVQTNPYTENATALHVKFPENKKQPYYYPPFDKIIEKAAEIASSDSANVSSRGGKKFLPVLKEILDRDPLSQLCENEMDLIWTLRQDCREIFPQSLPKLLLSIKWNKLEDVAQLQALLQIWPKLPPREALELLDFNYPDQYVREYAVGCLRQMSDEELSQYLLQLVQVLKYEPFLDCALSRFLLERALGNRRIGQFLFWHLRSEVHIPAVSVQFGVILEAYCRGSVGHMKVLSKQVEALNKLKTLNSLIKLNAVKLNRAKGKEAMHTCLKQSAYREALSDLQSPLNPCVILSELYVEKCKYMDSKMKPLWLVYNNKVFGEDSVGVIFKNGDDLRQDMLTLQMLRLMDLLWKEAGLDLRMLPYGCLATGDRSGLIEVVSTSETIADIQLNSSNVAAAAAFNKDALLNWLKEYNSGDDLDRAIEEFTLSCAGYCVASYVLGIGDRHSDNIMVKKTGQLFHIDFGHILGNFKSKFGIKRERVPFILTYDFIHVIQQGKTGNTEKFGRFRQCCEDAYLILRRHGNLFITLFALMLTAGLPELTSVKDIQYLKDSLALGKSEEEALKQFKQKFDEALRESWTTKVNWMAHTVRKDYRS
UniProt P42345, 1360-2549 limits assumed: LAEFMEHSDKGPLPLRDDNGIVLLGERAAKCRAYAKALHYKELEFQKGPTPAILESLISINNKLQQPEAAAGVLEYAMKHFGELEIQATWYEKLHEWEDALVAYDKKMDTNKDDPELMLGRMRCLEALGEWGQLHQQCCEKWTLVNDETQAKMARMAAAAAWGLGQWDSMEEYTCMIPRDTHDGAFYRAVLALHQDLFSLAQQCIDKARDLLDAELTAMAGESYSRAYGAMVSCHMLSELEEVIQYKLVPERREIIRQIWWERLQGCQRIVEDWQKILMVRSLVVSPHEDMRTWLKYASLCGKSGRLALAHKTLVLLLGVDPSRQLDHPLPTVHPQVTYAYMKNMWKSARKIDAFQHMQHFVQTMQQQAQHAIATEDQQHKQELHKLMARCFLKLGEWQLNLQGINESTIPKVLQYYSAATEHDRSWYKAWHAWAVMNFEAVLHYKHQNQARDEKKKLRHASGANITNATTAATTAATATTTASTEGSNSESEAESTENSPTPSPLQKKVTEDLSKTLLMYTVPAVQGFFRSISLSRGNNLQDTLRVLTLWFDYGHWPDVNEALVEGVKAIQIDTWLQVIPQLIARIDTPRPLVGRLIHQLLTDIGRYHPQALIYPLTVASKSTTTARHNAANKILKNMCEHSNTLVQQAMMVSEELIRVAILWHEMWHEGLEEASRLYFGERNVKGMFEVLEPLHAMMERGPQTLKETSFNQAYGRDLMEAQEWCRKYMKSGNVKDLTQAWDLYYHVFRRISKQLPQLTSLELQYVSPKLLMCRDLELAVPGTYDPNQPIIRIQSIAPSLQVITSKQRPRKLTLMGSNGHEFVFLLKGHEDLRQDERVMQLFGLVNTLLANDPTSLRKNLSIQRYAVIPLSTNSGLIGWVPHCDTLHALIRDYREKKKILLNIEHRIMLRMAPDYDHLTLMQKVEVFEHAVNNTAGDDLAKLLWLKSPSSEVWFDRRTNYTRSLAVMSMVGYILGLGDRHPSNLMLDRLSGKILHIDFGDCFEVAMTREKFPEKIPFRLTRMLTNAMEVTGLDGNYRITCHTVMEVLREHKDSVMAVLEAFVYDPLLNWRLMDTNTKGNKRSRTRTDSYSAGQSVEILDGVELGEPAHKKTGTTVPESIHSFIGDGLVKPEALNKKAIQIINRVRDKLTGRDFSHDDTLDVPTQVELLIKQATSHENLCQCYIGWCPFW

A value given as a limit tells only on which side of the number the result lay.

The target in one test is PI3K alfa (Homo sapiens, UniProt P42336). As to the kind of experiment: PI3K alpha kinase assay (Kinase-Glo luminescence). To be noted: read-out: EPK_PI3Kalfa/IC50. The procedure: (§1) In a more preferred assay, the kinase reaction is performed in a final volume of 10 μL per well of a low volume non binding CORNING, 384 well black plate (Cat. No. #3676). The final concentrations of ATP and phosphatidyl inositol (PI) in the assay are 1 μM and 10 μg/mL respectively. The reaction is started by the addition of ATP.
(§2) The components of the assay are added per well as follows: […]
(§3) IC50 is determined by a four parameter curve fitting routine that comes along with “excel fit”. […] Alternatively, IC50 values are calculated using idbsXLfit model 204, which is a 4 parameter logistic model.

Another test deals with PI3K beta (Homo sapiens, UniProt P42338). Description: PI3K beta kinase assay (Kinase-Glo luminescence). To be noted: read-out: EPK_PI3Kbeta/IC50. How it is done:
as §1, §2, §3

For another test, the target named is PI3K delta (Homo sapiens, UniProt O00329). Description: PI3K delta kinase assay (Kinase-Glo luminescence). The conditions noted are these: read-out: EPK_PI3Kdelta/IC50. The procedure: as §1, §2
PI3K delta is purified in three chromatographic steps: immobilized metal affinity chromatography on a Ni Sepharose resin (GE Healthcare), gel filtration utilizing a Superdex 200 26/60 column (GE Healthcare), and finally a anion exchange step on a Q-HP column (GE Healthcare). […] Fractions are analyzed by Coomassie stained SDS-PAGE gels, and fractions containing the target protein are pooled and applied to a prepared GFC column. Fractions from the GFC column are analyzed by Coomassie stained SDS-PAGE gels, and fractions containing the target protein are pooled. […] The column is washed with low salt buffer until a stable A280 baseline absorbance is achieved, and eluted using a 20 column volume gradient from 0 mM NaCl to 500 mM NaCl. Again, fractions from the Q-HP column are analyzed by Coomassie stained SDS-PAGE gels, and fractions containing the target protein are pooled. […]

For the next test, the target named is mTOR (Homo sapiens, UniProt P42345). As to the kind of experiment: Biochemical assay for m-TOR by TR-FRET. The conditions noted are these: read-out: EPK_mTOR/IC50. The procedure:
Biochemical Assay for m-TOR by TR-FRET.
Assay components are purchased from Invitrogen Corporation (Carlsbad/Calif., USA): GFP-4EBP1 (Cat. No. PV4759), Tb3+-α-p4EBP1 [pThr46] Antibody (Cat. No. PV4757), proprietary TR-FRET dilution buffer (Cat. No. PV3574), mTOR protein (Cat. No. PV4753).
50 nL of compound dilutions (final concentration of 10, 3.0, 1.0, 0.3, 0.1, 0.03, 0.01 and 0.003 μM) are dispensed onto black 384-well low volume non-binding polystyrene (Cat. No. NBS#3676, Corning, Lowell/Mass., USA). Then 5 μL of ATP (8 μM final concentration) and GFP-4EBP1 (400 nM final concentration) with 5 μL mTOR proteins (0.5 nM final concentration) are incubated at rt. The standard reaction buffer for the TR-FRET mTOR assay contained 50 mM HEPES pH 7.5, 10 mM MnCl2, 50 mM NaCl, 1 mM EGTA, 1 mM DTT. Reactions were stopped with 10 μL of a mixture of EDTA containing the Tb3+-α-p4EBP1[pT46] detection Ab (0.5 nM) in TR-FRET dilution buffer (proprietary to IVG). Plates are read 15 mins later in a Synergy2 reader using an integration time of 0.2 seconds and a delay of 0.1 seconds. Control for the 100% inhibition of the kinase reaction is performed by replacing the mTOR kinase by the standard reaction buffer. The control for the 0% inhibition is given by the solvent vehicle of the compounds (90% DMSO in H2O). […]

For test [1], the target named is PKB Ser473 phosphorylation in Rat1-myr-HA-p110 alpha cells (UniProt P42336). Description: Reverse protein array, PKB Ser473 phosphorylation in Rat1-myr-HA-p110 alpha cells. The conditions noted are these: read-out: p-PKB/IC50_alpha, 30 minutes compound incubation. The procedure:
(§4) No. 15140-114) and 10 μg/ml Puromycine (Sigma, cat. No. P9620).
(§5) The Rat1-myr-HA-p110 alpha, beta and delta cells were trypsinized and counted with a CASY TT cell counter (Schärfe System GmbH, Reutlingen Germany). The cells were diluted in fresh DMEM complete medium and 3×10^4 cells/150 μl/well seeded in 96-well TPP-tissue culture plates (TPP, cat. No. 92096). The plates were incubated at 37° C. and 5% CO2 under humidified condition for at least 20 h. Compound of formula I working solutions were prepared freshly as serial 8 step dilutions (vol/vol) in DMSO on the day of the experiment. The working solutions were further diluted 1/500 in cell culture medium to get final compound concentrations of 10, 3.333, 1.111, 0.370, 0.123, 0.041, 0.014, 0.005 μM. […]
(§6) After the sample spotting and blocking procedure, the ZeptoMARK® chips were transferred to the ZeptoCARRIER (Zeptosens, cat. No. 1100), whose six flow cells individually address the six arrays on a chip, and washed twice with 200 μl CAB1 CeLyA assay buffer (Zeptosens, cat. No. 9032). […] The fluorescence of the target-bound Fab fragments is read out on the ZeptoReader (Zeptosens, Witterswil, Switzerland) using a laser (excitation wavelength 635 nm) and a CCD camera. The fluorescence signal was assessed with exposure times of 1, 3, 5 and 10 seconds, depending on the intensity of the signal. […]

The target of test [2] is PKB Ser473 phosphorylation in Rat1-myr-HA-p110 beta cells (UniProt P42338). Description: Reverse protein array, PKB Ser473 phosphorylation in Rat1-myr-HA-p110 beta cells. To be noted: read-out: p-PKB/IC50_beta, 30 minutes compound incubation. How it is done:
as §4, §5, §6

Test [3] addresses PKB Ser473 phosphorylation in Rat1-myr-HA-p110 delta cells (UniProt O00329). As to the kind of experiment: Reverse protein array, PKB Ser473 phosphorylation in Rat1-myr-HA-p110 delta cells. The conditions noted are these: read-out: p-PKB/IC50_delta, 30 minutes compound incubation. The procedure:
as §4, §5, §6

Consider `CCOc1ccc(-c2ccc3ncc4c(c3c2)n(-c2ccc(N3CCC3)nc2C)c(=O)n4C)cn1`, for which the IC50 is 385 nM at PI3K alfa; above 9100 nM on PI3K beta; 772 nM on PI3K delta; 423 nM at mTOR; 28.5 nM in test [1]; 98.4 nM in test [2]. In test [3], the IC50 turned out to be 139 nM.
